From article PMC7126328 (Bioorganic & Medicinal Chemistry, 2013)

How the values were obtained:
E. coli/pET36b-gfp = settings: 150 μM
E. coli/pRAC-gfp = settings: 150 μM

CC[N+](C)(CC)CC/N=C1\C[C@H]2CC[C@]1(C)C2(C)C [Compound 4a, N,N-Diethyl-N-methyl-2-((E)-((1R,4R)-1,7,7-trimethylbicyclo[2.2.1]heptan-2-ylidene)amino)ethanaminium iodide]
Toxic and mutagenic effects on indicator cells E. coli/pET36b-gfp (in words) (E. coli/pET36b-gfp): neither toxic nor mutagenic effects
Toxic and mutagenic effects on indicator cells E. coli/pRAC-gfp (in words) (E. coli/pRAC-gfp): neither toxic nor mutagenic effects
